In US20210261539A1, “COMPOUND HAVING BET INHIBITORY ACTIVITY AND PREPARATION METHOD AND USE THEREFOR” (Shanghai Haihe Pharmaceutical Co., Ltd., priority 2018, published 2021):

Biological target: BRD4 BD1 (Homo sapiens, UniProt O60885)
Assay: HTRF in vitro enzyme activity assay, inhibition of BRD4 BD1 binding to acetylated H4 peptide
Conditions: read-out: BRD4 IC50; IC50 values of the compounds against BRD4 BD1 binding; class symbols A/B/C
Experimental: Effect Examples: In Vitro Enzyme Activity Assay
Half inhibitory activity (IC50) of the compounds of the invention against the bromodomain protein BRD4 BD1 was determined in the present Examples.
The compounds of the invention were tested for inhibitory activity against BRD4 BD1 with Homogeneous Time-Resolved Fluorescence (HTRF).
2. Reagents, Consumable Materials and Instruments:
Protein BRD4 BD1 used in the assay was purchased from Active Motif (cat. 31380); streptavidin XL-665 (#610SAXLA) and EPIgeneous Binding Domain Kit A (#62BDAPEG) were both purchased from Cisbio Bioassays; [Lys(5,8,12,16)Ac] H4(1-21)-biotin (#64989), [Lys(5,8,12,16)Ac]H4(1-25) were available from Anaspec; OTX015 and ABBV-075 were purchased from Selleckchem Co. The 384-well ProxiPlate (#6008280) was purchased from Perkinelmer Co. The Laboratory microplate reader (Envision 2104) was available from PerkinElmer Co. The water used in the assay was Millipore-Q pure water.
3. Formulation of the Compound […]
6) 10 μL of detection mixture (2×) was added to each well, incubated at RT for 3 h. The mp value was read by microplate reader Envision with the following parameters: […]

| IC50 [nM] | SMILES |
| --- | --- |
| < 10 | CCN1C(=O)C(C)N(C2CC2)c2nc(N3C(=O)c4ccccc4C3c3ccc(Cl)cc3)ccc21 (single isomer, unassigned) |
| < 10 | C[C@H]1Oc2nc(N3C(=O)c4ccccc4C3c3ccc(F)cc3)ncc2N(C)C1=O (some centres unmarked) |
